Measured values from patent publication US20210017295A1, “BISPECIFIC BINDING AGENTS AND USES THEREOF” (MEMORIAL SLOAN KETTERING CANCER CENTER, priority 2018, published 2021).
pKd: −log10 of the molar value.

Assays:
BSA-(Y)-DOTA-Bn = test: Surface plasmon resonance (Biacore T100) binding to BSA-(Y)-DOTA-Bn; details: bivalent analyte model, read-out: overall KD
Method: Biacore T100 Biosensor, CMS sensor chip, and related reagents were purchased from GE Healthcare. A BSA-(Y)-DOTA-Bn conjugate was prepared as previously described. The antigen was immobilized using the Amine Coupling Kit (GE Healthcare). Purified BsAbs were analyzed, and data were fit to a bivalent analyte model using the Biacore T100 evaluation software as previously described.

[1] = tested on: HER2(+) breast cancer cell line AU565; test: Flow cytometry (FACS) binding to AU565 cells; assay type: cell-based; details: compared with parental trastuzumab
Method: FIG. 1A-FIG. 1C. In vitro characterization of anti-HER2-C825 BsAb. FIG. 1A: Biochemical purity of HER2-C825 by SE-HPLC chromatogram (UV 280 nm). The major peak (15.933 min) is the fully-paired BsAb with an approximate molecular weight of 210 kDa (>96% integrated area under the curve). 25 min is the salt buffer peak. FIG. 1B: Biacore sensorgrams of BsAbs binding to BSA-(Y)-DOTA-Bn. FIG. 1C: FACS histograms of antibodies binding to the HER2(+) breast cancer cell line AU565. Top of the left histogram recorded the concentrations of antibodies (μg/10^6 cells), and Rituxan was used as negative control (MFI set at 5).
The binding affinity to antigen Bovine serum albumin (BSA)-(Y)-DOTA-Bn was measured by Biacore T100. […] The binding to tumor targets was measured by flow cytometry.

HER2(+) BT-474 cells = test: Internalization and cellular processing of ^131I-anti-HER2-C825 in BT-474 cells; assay type: cell-based, human
Method: Trastuzumab is known to internalize upon binding to surface HER2 antigen. […] In brief, cells were plated at a density of 5.0×10^5 cells/mL in 12-well plates and allowed to adhere overnight. Cells were pre-incubated on ice with ^131I-anti-HER2-C825 (prepared using the IODOGEN method to a specific activity of 132 MBq/mg and purified using SEC to radiochemical purity>98%; diluted into complete media; 160 ng/mL; 0.8 nM) for 1 h. Next, the cells were extensively washed with complete media chilled on ice and the plates were transferred to the 37° C. incubator. At various time-points up to 24 h, the radioactive distribution in the outside media, cell-surface, as well as the fraction of activity internalized by the cells was determined (n=3-6 per time-point) by quantification in the gamma counter. An acid-wash protocol was used to strip cell-surface antibody, consisting of treating the cells on ice three times for 5 minutes (min) with 2 M urea, 50 mM glycine, 150 mM NaCl, pH 2.4, and pooling the supernatants. […] Controls consisted either of incubation at 4° C. or wells consisting of the ^131I-anti-HER2-C825 diluted into media only. These control wells were also subjected to TCA precipitation in order to inhibit internalization and determine the basal catabolism (via degradation) rate of the tracer, respectively. For kinetic analysis, data was curve fitted using a nonlinear model, with one-phase association using Prism software package, Graphpad Software Inc., San Diego, Calif.

[2] = Toxicity assessment: weight monitoring and removal criteria; assay type: in vivo, mouse; details: ~85 d
[3] = Histopathology at necropsy and pathology severity scoring; assay type: in vivo, mouse
HER2(+) BT-474 tumors [4] = details: mouse, in vivo
Method: The tumor uptake was (as mean±SD) 8.87±2.50, 10.16±4.08, 7.96±2.37, and 5.62±1.44 at 4, 12, 24, and 48 hours (h) post-injection (p.i.), respectively. […] The blood activity was (as mean±SD) 11.3±0.79, 6.57±0.44, 3.98±0.25, and 2.26±0.23 at 4, 12, 24, and 48 h p.i., respectively.
At a certain time (T), the system comes into equilibrium and the tumor and the plasma decline in parallel, and at this point after injection the concentration in the plasma was 5% of the injected dose/mL, which converts to 0.060 nM/mL or 60 nM/L.

HER2(+) BT-474 tumors [5] = test: Biodistribution with modified BsAb / clearing agent time intervals (same-day PRIT); details: mouse, in vivo
Method: Two separate in vivo anti-HER2-DOTA-PRIT experiments were performed to study the impact of BsAb time interval on ^177Lu-DOTA-Bn uptake (24 h p.i.) in tissue (as mean±SD).
During a second set of experiments (Table 31), the BsAb timing interval was varied, as well as the timing interval between the clearing agent and ^177Lu-DOTA-Bn.
In FIG. 2, the time course of bifunctional HER2-C825 antibody uptake onto BT474 tumor is shown. […] Without being bound by any particular theory, this timing may be optimal for clinical application because all of the regents could be easily administered in one day, and the TI's for tumor:blood and tumor:liver, as well as the absolute uptake in tumor will be maintained at levels within 80% of maximum, which is observed at 10 hours in this experiment (see Table 32). At this uptake level, cures in mice have been seen, and the TI's are protective of the blood and kidney, the 2 critical organs. In this case the internalization of antibody-antigen is likely to be helpful because the ^177Lu radiometal captured by bispecific binding agent that is bound to membrane HER2, will be taken up and the radiometal will be trapped in the tumor tissue.
It should also be noted that the clearing agent is essential to achieve high TIs.

HER2 receptor = target: T1, HER2 receptor (Homo sapiens, UniProt P04626); test: Law of mass action calculation of HER2 receptor saturation and scaling to man; details: scaled to man
T1 construct: the law of mass action to the case of HER2 antigen on BT474 xenografts in the laboratory; endogenous in cells; host or cells: BT-474 human breast cancer xenografts in mice; values extrapolated to HER2-expressing tumours in man
From the text: From the equilibrium law of mass action, the antibody [L] and tumor receptor [R] concentrations can be thought of as:
Ka=[LR]/[L]*[R];solving for [LR]/[R],which is the proportion of the tumor receptor by antibody; Equation 1:
Ka*[L]=[LR]/[R]. Equation 2:
Since (L) can be measured in the plasma and since Ka for the antibody is known, one can calculate the degree of saturation [LR]/[R].
In order to scale to man, an estimate of the total volume of blood of ˜5000 mLs is used below.
This yields about 625 mg of HER2-C825 injected to achieve a [RL]/R=60 (98.4%.) If 1/2 of this or 312.5 mg where injected [RL]/R=30 (97%); at a dose of 156.5 mg, there [RL]/R=15(94%). Without being bound by any particular theory, all of these doses are close to total binding or available antibody to receptor and so there should be little change in bifunctional antibody uptake at the tumor site. These are doses that are very close to doses usually administered e.g. dose of Herceptin that has been empirically determined as being nearly optimal for therapy. (See Herceptin package insert, e.g. 8 mg/kg IV over 90 minutes as initial infusion, or 560 mg for a 70 kg adult, in gastric Ca, for example.)

[6] = medium tumors, fractionated study
[7] = small tumors, single-cycle study, 55.5 MBq

Substance: anti-HER2-C825: IgG-scFv bispecific antibody from trastuzumab and murine C825; heavy chain SEQ ID No. 15, light chain fusion polypeptide SEQ ID NO: 7
- pKd (BSA-(Y)-DOTA-Bn): 8.22
- binding to HER2(+) AU565 cells by flow cytometry [1]: equally efficient as parental trastuzumab
- K of rate of increase in catabolized radioactivity in extracellular media (HER2(+) BT-474 cells; 37° C., R^2=0.995): 0.054
- half-time of increase in catabolized radioactivity in extracellular media (HER2(+) BT-474 cells; 37° C., R^2=0.995): 12.82 h
- half-life of remaining surface-bound activity (HER2(+) BT-474 cells; 37° C., after first 2 h, R^2=0.992): 8.5 h
- initially bound remaining on the cell surface (HER2(+) BT-474 cells; BT-474, 37° C., 24 h): 11.1±0.48%
- internalized radioactivity (HER2(+) BT-474 cells; BT-474, 37° C., 24 h): 5.6±0.21%
- initially bound remaining on the cell surface (HER2(+) BT-474 cells; BT-474, 37° C., 24 h, listed as BsAb): 11%
- surface-bound activity lost (HER2(+) BT-474 cells; first 2 h of incubation at 37° C.): ~50%
- animals removed: Discovered deceased [2, 6]: 1/5
- animals removed: Tumor burden [2, 6]: 0/5
- animals removed: Weight loss [2, 6]: 1/5
- animals removed: Discovered deceased [2, 7]: 2/5
- animals removed: Tumor burden [2, 7]: 0/5
- animals removed: Weight loss [2, 7]: 0/5
- Histopathologic findings, Bone marrow ([3]; mouse, in vivo): N
- Histopathologic findings, Bones ([3]; mouse, in vivo): N
- Score: Bone Marrow, Diffuse myelofibrosis ([3]; mouse, in vivo): 0
- Score: Bone Marrow, Erythroid compartment is depleted of both mature and immature forms ([3]; mouse, in vivo): 0
- Score: Bone Marrow, Focal myelofibrosis ([3]; mouse, in vivo): 1
- Score: Bone Marrow, Multifocal myelofibrosis ([3]; mouse, in vivo): 0
- Score: Spleen, EMH is: 2 ([3]; mouse, in vivo): 2
- Score: Spleen, EMH is: 2-3 ([3]; mouse, in vivo): 0
- Score: Spleen, EMH is: 3 ([3]; mouse, in vivo): 0
- Score: Spleen, EMH is: 3-4 ([3]; mouse, in vivo): 0
- Total organ severity score: Bone Marrow ([3]; mouse, in vivo): 1
- Total organ severity score: Kidney ([3]; mouse, in vivo): 3
- Total organ severity score: Spleen ([3]; mouse, in vivo): 2
- Histopathologic findings, Tumor ([3]; small tumors, single-cycle study, ~85 d, individual animals, listed as BsAb): No tumor
- approximation of tumor half-life (HER2(+) BT-474 tumors [4]): ~36 h
- blood half-life (HER2(+) BT-474 tumors [4]): 8.1 h
- time at which maximum tumor uptake is observed (HER2(+) BT-474 tumors [5]): 10 h
- receptor saturation (HER2 receptor; 312.5 mg injected): 97%
- receptor saturation (HER2 receptor; about 625 mg injected): 98.4%
- receptor saturation (HER2 receptor; dose of 156.5 mg): 94%
- tumor volume, % of pre-treatment volume (s.c. BT-474 xenografts; medium BT-474 tumors, fractionated study, 85 d): 396±252%
- complete responses (CR), animals (s.c. BT-474 xenografts; small BT-474 tumors (palpable-30 mm^3), single-cycle study, 55.5 MBq, 85 d, listed as BsAb): 1/5
- complete responses (CR) (s.c. BT-474 xenografts; small BT-474 tumors, single-cycle study, 55.5 MBq, 85 d): 20%
- cures (s.c. BT-474 xenografts; small BT-474 tumors, single-cycle study, 55.5 MBq, necropsy ~85 d): 33.3%
- cures, animals (s.c. BT-474 xenografts; small BT-474 tumors, single-cycle study, 55.5 MBq, necropsy ~85 d, listed as BsAb): 1/3
